# Results reported in patent EP4186514A1, “PHARMACEUTICAL COMPOSITION FOR PREVENTING OR TREATING CHOLANGITIS OR LIVER DISEASE CAUSED BY CHOLANGITIS COMPRISING ADENOSINE DERIVATIVE” (Future Medicine Co., Ltd., priority 2021, dated 2023).
# By UniProt entry, the sequences of proteins in these tests, tags left out.
# UniProt P0DMS8, whole entry: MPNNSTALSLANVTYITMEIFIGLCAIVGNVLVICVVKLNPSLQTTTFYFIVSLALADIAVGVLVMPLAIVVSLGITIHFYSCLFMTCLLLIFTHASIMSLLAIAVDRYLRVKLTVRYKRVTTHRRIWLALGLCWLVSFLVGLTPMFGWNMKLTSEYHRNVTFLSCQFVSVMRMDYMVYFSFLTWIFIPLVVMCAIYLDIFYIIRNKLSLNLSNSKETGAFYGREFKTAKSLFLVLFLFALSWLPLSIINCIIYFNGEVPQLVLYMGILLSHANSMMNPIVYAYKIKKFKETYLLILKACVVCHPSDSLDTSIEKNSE
# UniProt P30542, whole entry: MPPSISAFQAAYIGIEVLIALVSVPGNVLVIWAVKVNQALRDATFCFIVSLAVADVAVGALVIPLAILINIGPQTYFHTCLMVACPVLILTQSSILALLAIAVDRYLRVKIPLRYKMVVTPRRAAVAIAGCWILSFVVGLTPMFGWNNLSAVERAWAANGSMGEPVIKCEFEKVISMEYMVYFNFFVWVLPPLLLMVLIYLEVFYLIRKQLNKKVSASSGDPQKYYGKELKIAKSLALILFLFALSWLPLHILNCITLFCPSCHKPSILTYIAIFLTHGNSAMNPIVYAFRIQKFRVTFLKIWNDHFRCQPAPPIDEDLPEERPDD
# What was measured:
# [1] = molecular target: T1, A3 adenosine receptor (Homo sapiens, UniProt P0DMS8); experiment: Radioligand binding affinity, A3 adenosine receptor ([125I]AB-MECA, CHO cells); conditions: nM ± SEM; read-out: Ki(nM) hA3
# T1 construct: expressed in transfected cells; host or cells: CHO cells (ATCC No. CCL-61)
# [2] = molecular target: T2, A1 adenosine receptor (Homo sapiens, UniProt P30542); experiment: Radioligand binding affinity, A1 adenosine receptor ([3H]CCPA, CHO cells); conditions: nM ± SEM; read-out: Ki(nM) hA1
# T2 construct: expressed in transfected cells; host or cells: CHO cells (ATCC No. CCL-61)
# [3] = molecular target: T3, A2A adenosine receptor (Homo sapiens, UniProt P29274); experiment: Radioligand binding affinity, A2A adenosine receptor ([3H]CGS-21680, HEK 293 cell); conditions: nM ± SEM; read-out: Ki(nM) hA2A
# T3 construct: expressed in transfected cells; host or cells: HEK 293 cell
Ki [2],Ki [3],SMILES,Ki [1]
–,–,"O[C@@H]1[C@H](O)CS[C@H]1n1cnc2c(NCc3cccc(Cl)c3)nc(Cl)nc21 [Example 2, (2R,3R,4S)-2-(2-chloro-6-(3-chlorobenzylamino)-9H-purin-9-yl)tetrahydrothiophen-3,4-diol]",1.66 ± 0.9 nM
530 ± 97 nM,230 ± 65 nM,"O[C@@H]1[C@H](O)CS[C@H]1n1cnc2c(NCc3cccc(I)c3)ncnc21 [Example 14, (2R,3R,4S)-2-(6-(3-iodobenzylamino)-9H-purin-9-yl)tetrahydrothiophen-3,4-diol]",–
